Test results taken from PubChem BioAssay (NCI).
The entries are a selection whose mix differs from that of the whole data set. Some salts or complexes appear as unconnected parts, following the source record. Some structures have more than one record in an assay (separate samples or runs), and their calls can disagree. The source made the active and inactive calls. Cut-off read from the data, not from the text of the source: active = growth inhibition above about 70%; inactive = the rest.

Experiment: NCI Yeast Anticancer Drug Screen. Data for the wt2 strain (AID 169);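 note: 0% = growth of vehicle-treated yeast cultures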
Settings: S. cerevisiae wt2 strain growth inhibition, hits give high values
Method: Growth inhibition of yeast strains with defined genetic alterations is measured as a screen for potential anti-cancer activity. Selected strains with alterations in DNA damage repair or cell cycle control were exposed to compounds and growth inhibition was measured relative to vehicle treated controls. The strain used in this assay is wt2

| Compound | growth inhibition (at 1.2 µM) | growth inhibition (at 3.7 µM) | growth inhibition (at 11.0 µM) | growth inhibition (at 33.0 µM) | growth inhibition (at 100.0 µM) |
| --- | --- | --- | --- | --- | --- |
| COc1ccccc1N.O=[N+]([O-])c1cc([N+](=O)[O-])cc([N+](=O)[O-])c1 | inactive: -3% | inactive: 1% | inactive: 39% | active: 99% | active: 99% |
| [Au+].[Au+].c1ccc([PH+](c2ccccc2)c2ccccc2)cc1.c1ccc([PH+](c2ccccc2)c2ccccc2)cc1.n1n[n-]c(-c2nnn[n-]2)n1 | inactive: -30% | inactive: 26% | active: 97% | active: 98% | active: 97% |
| O=[N+]([O-])C(F)(COCC(O)CO)[N+](=O)[O-] (stereo not given) | inactive: 0% | inactive: 14% | inactive: 19% | inactive: 47% | active: 90% |
| Cc1c2ccccc2cc2ccccc12.O=[N+]([O-])c1cc([N+](=O)[O-])c(O)c([N+](=O)[O-])c1 | inactive: -1% | inactive: 8% | inactive: 4% | inactive: 28% | active: 93% |
| [Au].[C-]#N.[C-]#N | inactive: -22% | inactive: -30% | inactive: -36% | inactive: -24% | inactive: -8% |
| [Au+].[N-]=[N+]=N.c1ccc([PH+](c2ccccc2)c2ccccc2)cc1 | inactive: 13% | active: 99% | active: 99% | active: 97% | active: 93% |
| Cc1ccc2ccc3ccc4ccccc4c3c2c1.O=C1c2cc([N+](=O)[O-])ccc2-c2c1cc([N+](=O)[O-])cc2[N+](=O)[O-] | inactive: -3% | inactive: -2% | inactive: -1% | inactive: 1% | inactive: 9% |
| Nc1ccccc1.O=[N+]([O-])c1cc([N+](=O)[O-])cc([N+](=O)[O-])c1 | inactive: -2% | inactive: -2% | inactive: 28% | active: 99% | active: 99% |
